## Binding of CDR-mutated scFvs to a peptide of the spike HR2 region

Data: MIT Lincoln Laboratory AlphaSeq set, Li et al. 2023, doi:10.1038/s41467-023-39022-2, as distributed in FLAb.

Antigen: PDVDLGDISGINAS, a 14-residue peptide of the SARS-CoV-2 spike HR2 region.

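Phage display of a naive human antibody library on the peptide gave the parent. Designed CDR sequences, proposed from the first random library and measured here. Group labels follow the data file (Ctrl: baseline library sampled from a position-specific scoring matrix, with some repeated check sequences; GP: Gaussian process model; HC: hill climbing; Gen: genetic algorithm; Gibbs: Gibbs sampling; a sequence that several methods proposed may carry one label only). AlphaSeq pools MATa yeast showing the antibodies with MATalpha yeast showing the peptide. The frequency of each diploid, read from paired DNA barcodes, reflects how well the two displayed proteins bind. A regression on co-assayed BCL2-family reference pairs converts the normalised counts of each replicate to an apparent Kd. The assay was run in six technical replicates.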

Ab-14 is the parent antibody, in scFv form: VH, then three GGGGS repeats, then VL. The heavy chain is unchanged in all variants.
VH: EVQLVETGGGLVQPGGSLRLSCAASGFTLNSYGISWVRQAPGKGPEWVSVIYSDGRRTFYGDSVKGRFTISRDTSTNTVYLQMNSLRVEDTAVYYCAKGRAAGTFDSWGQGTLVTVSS
VL: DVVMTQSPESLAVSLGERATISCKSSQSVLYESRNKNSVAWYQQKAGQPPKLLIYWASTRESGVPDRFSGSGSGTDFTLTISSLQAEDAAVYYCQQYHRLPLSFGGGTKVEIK

Changes read parent residue, position, new residue, counted from the first residue of the VL shown. This list holds designs with at most six substitutions. The Kd shown is the geometric mean over detected replicates; a lower Kd is a better binder. Background: pairings of all light chain designs with three empty control strains gave a value in 4% of cases (median 430 nM, 5th percentile 38 nM). Values in that range, when seen in few replicates, are hard to tell from nonspecific mating.

With S25V+V29Q+W56N+T59K [GP_Gen] the result was 61 nM (6 of 6 replicates). With Y31N+W56G+Q95N [Ctrl] the result was 220 nM (1 of 6 replicates). For S25V+S33D+K36S+W56N [GP_Gen], the assay gave 1.3 nM (6 of 6 replicates). The variant L30G+K36P+S62V [Ctrl] showed 15 nM (6 of 6 replicates). For S25V+V29C+W56E [GP_Gen], the assay gave 920 pM (6 of 6 replicates). The variant L30G+W56Q [Ctrl] gave 3.8 nM (6 of 6 replicates). The variant S25L+S26Q+V29E+L30Q+W56N [GP_Gen] showed 1.7 nM (6 of 6 replicates).

For S25L+V29F+W56E+T59Q [GP_Gen], the assay gave 580 pM (6 of 6 replicates). For S25L+V29F+W56N+S62K [GP_Gen], the assay gave 690 pM (6 of 6 replicates). The variant S25L+N35V+S38N+W56D [GP_Gen] gave 580 pM (6 of 6 replicates). With S25L+N35D+W56N+E61M [GP_Gen] the result was 2.3 nM (6 of 6 replicates). With S25L+Y31M+K36A+W56G+A57C [Ctrl] the result was 3.0 nM (6 of 6 replicates). The variant S25V+V29M+W56D [GP_Gen] showed 370 pM (6 of 6 replicates). With S25L+W56A+E61M [GP_Gen] the result was 1.3 nM (6 of 6 replicates).

With Q27G+L30E+Y31M+E32L+K36V+W56E [GP_Gibbs] the result was 1.8 nM (6 of 6 replicates). The variant S25L+V29H+W56H [GP_Gen] showed 2.6 nM (6 of 6 replicates). With K24H+S26V+V39I+W56K+S62G+R99M [Ctrl] the result was 71 nM (1 of 6 replicates). The variant S25L+S26E+V29A+W56N+T59Q [GP_Gen] showed 480 pM (6 of 6 replicates). With S25L+S26M+V29D+W56G [GP_Gen] the result was 580 pM (6 of 6 replicates). The variant S25V+S26Q+V29H+W56N+T59Y [GP_Gen] gave 560 pM (6 of 6 replicates). For S25L+S26R+V29T+S38E+W56Q [GP_HC], the assay gave 5.1 nM (6 of 6 replicates).

The variant L30E+S33E+N37Q+W56D [Ctrl] showed 3.0 nM (6 of 6 replicates). For Q27E+V29F+W56G+P101T [GP_HC], the assay gave 1.1 nM (6 of 6 replicates). With S25V+Q27G+V29W+W56E [GP_Gen] the result was 580 pM (6 of 6 replicates). The variant S25F+S26P+S28G+W56G+T59V [GP_HC] gave 92 nM (4 of 6 replicates). For S25V+Q27P+V29E+W56E+S62E [GP_Gen], the assay gave 580 pM (6 of 6 replicates). With S25L+S26Q+S28Q+V29H+W56S+S62E [GP_HC] the result was 1.4 nM (6 of 6 replicates). With Q27T+W56D+S58V [Ctrl] the result was 4.6 nM (6 of 6 replicates).

The variant S25A+S26V+V29W+W56G+S103I [GP_HC] showed 3.1 nM (6 of 6 replicates). The variant S25F+V29Q+N35T+S38G+W56N [GP_HC] gave 870 pM (6 of 6 replicates). The variant K24H+S25L+Q27D+W56N+S103W [GP_HC] showed 410 pM (6 of 6 replicates). The variant Q27P+K36P [Ctrl] gave 26 nM (5 of 6 replicates). The variant S25F+L30W+W56E [GP_Gen] showed 1.1 nM (6 of 6 replicates).

Extract of 2 entries:

{"changes": "S25V+S26Q+V29H+W56N+T59Y", "group": "GP_Gen", "Kd (apparent)": "560 pM", "detected": "6 of 6"}
{"changes": "S25A+S26V+V29W+W56G+S103I", "group": "GP_HC", "Kd (apparent)": "3.1 nM", "detected": "6 of 6"}

The parent sequence was in this pool as ten entries: three were never detected, three once, and four in most replicates, with averages from 2.2 nM to 240 nM. In the paper, a design with two or fewer of six values counts as a poor binder. Values of this round are not directly comparable with the first-round values of the same sequences.